Data from ChEMBL document CHEMBL4725358 (J Med Chem, 2020).

The chains behind the UniProt entries cited, without tags or fusion partners. Where a name states a change or a piece, a line headed by the entry shows the natural chain unless it says otherwise.
UniProt Q8BFU7: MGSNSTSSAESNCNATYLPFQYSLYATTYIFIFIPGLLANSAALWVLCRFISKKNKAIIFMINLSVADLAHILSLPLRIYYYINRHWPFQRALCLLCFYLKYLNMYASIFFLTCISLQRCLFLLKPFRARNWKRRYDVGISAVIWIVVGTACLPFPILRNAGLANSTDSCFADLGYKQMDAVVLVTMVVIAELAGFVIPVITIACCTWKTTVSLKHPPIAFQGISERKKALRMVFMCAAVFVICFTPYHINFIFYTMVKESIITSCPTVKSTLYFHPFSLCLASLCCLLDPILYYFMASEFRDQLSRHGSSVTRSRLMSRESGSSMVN
UniProt Q9R1K6: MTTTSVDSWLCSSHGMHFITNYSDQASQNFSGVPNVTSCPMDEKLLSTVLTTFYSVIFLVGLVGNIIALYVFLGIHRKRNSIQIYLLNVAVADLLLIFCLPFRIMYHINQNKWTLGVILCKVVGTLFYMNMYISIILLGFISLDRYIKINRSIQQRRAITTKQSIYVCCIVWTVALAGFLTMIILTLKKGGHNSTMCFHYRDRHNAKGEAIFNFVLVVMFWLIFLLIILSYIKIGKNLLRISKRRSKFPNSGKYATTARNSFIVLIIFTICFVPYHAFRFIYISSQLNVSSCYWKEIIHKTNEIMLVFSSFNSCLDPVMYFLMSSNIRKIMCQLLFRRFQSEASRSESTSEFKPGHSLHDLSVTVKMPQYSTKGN

Columns and labels:
Assay type in all cases: cell-based
[1] = biological target: Putative P2Y purinoceptor 10 (Mus musculus) (UniProt Q8BFU7); assay: Agonist activity at mouse P2Y10 expressed in HEK293 cells co-transfected with AP-TGFalpha/Galphaq/i1 assessed as induction of ectodomain shedding of membrane bound AP-TGFalpha after 1 hr by p-NPP substrate based microplate reader analysis relative to positive control; details: filed as agonist
Procedure, shortened: (§1)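 Run the same way as the GPR34 shedding assay, but with a mouse P2Y10 expression vector in HEK293 cells alongside AP-TGFα and chimeric Gα. Receptor-specific AP-TGFα release was found by subtracting the empty-vector background. EC50 and Emax came from concentration-response curves. Mean and SEM of 3−8 independent experiments.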

[2] = biological target: Probable G-protein coupled receptor 34 (Mus musculus) (UniProt Q9R1K6); assay: Agonist activity at mouse GPR34 expressed in HEK293 cells co-transfected with AP-TGFalpha/Galphaq/i1 assessed as induction of ectodomain shedding of membrane bound AP-TGFalpha after 1 hr by p-NPP substrate based microplate reader analysis relative to control
Procedure, shortened: (§2)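 HEK293 cells transiently transfected with AP-TGFα, chimeric Gα and mouse GPR34 vectors, then treated with compound. Empty-vector cells (AP-TGFα plus chimeric Gα) served as background. Receptor-specific AP-TGFα release was taken after subtracting that background, and concentration-response curves gave EC50 and Emax. Mean and SEM of 3−8 independent experiments.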

[3] = biological target: Probable G-protein coupled receptor 34 (Mus musculus) (UniProt Q9R1K6); assay: Agonist activity at mouse GPR34 expressed in HEK293 cells co-transfected with AP-TGFalpha/Galphaq/i1 assessed as induction of ectodomain shedding of membrane bound AP-TGFalpha after 1 hr by p-NPP substrate based microplate reader analysis relative to positive control; details: filed as agonist; procedure, shortened: as §2
[4] = biological target: T1, G protein-coupled receptor 34a (Danio rerio) (UniProt Q6XCC7); assay: Agonist activity at zebrafish GPR34 type a expressed in HEK293 cells co-transfected with AP-TGFalpha/Galphaq/i1 assessed as induction of ectodomain shedding of membrane bound AP-TGFalpha after 1 hr by p-NPP substrate based microplate reader analysis relative to control
T1 sequence (whole entry): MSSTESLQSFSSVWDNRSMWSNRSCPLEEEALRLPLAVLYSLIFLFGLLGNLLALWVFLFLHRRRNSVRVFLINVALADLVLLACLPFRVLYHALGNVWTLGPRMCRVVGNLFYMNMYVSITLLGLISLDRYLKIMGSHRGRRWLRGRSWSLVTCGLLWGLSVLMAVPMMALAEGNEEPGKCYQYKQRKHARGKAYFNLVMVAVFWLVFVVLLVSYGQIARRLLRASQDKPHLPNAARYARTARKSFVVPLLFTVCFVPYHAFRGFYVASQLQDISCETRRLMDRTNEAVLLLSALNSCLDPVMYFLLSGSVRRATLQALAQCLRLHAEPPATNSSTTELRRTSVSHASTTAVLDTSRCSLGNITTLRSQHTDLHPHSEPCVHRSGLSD

[5] = biological target: Putative P2Y purinoceptor 10 (Mus musculus) (UniProt Q8BFU7); assay: Agonist activity at mouse P2Y10 expressed in HEK293 cells co-transfected with AP-TGFalpha/Galphaq/i1 assessed as induction of ectodomain shedding of membrane bound AP-TGFalpha after 1 hr by p-NPP substrate based microplate reader analysis relative to control; procedure, shortened: as §1
[6] = biological target: T2, G protein-coupled receptor 34b (Danio rerio) (UniProt B0S6P9); assay: Agonist activity at zebrafish GPR34 type b expressed in HEK293 cells co-transfected with AP-TGFalpha/Galphaq/i1 assessed as induction of ectodomain shedding of membrane bound AP-TGFalpha after 1 hr by p-NPP substrate based microplate reader analysis relative to control
T2 sequence (whole entry): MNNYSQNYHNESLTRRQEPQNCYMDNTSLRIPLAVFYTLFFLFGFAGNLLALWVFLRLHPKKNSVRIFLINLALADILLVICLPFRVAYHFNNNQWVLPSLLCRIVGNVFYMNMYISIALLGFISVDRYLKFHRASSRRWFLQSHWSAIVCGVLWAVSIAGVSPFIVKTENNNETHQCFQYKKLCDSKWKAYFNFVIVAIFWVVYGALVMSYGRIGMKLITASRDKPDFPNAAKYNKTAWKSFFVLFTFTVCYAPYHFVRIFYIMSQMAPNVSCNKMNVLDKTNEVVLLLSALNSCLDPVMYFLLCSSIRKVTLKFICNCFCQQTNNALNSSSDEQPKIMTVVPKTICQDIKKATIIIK

| Emax [4] | Emax [5] | Emax [6] [%] | SMILES | fold change (FC) [1] | Emax [2] [%] | fold change (FC) [3] |
| --- | --- | --- | --- | --- | --- | --- |
| – | – | – | CCCCCCCC/C=C\CCCCCCCC(=O)OC[C@@H](O)COP(=O)(O)OC[C@H](N)C(=O)O | 0.083 | 8.3 | 0.33 |
| inactive | inactive | 29 | CCOC[C@H](COC(=O)CCc1ccccc1OCc1cccc(Oc2ccccc2)c1)OP(=O)(O)OC[C@H](N)C(=O)O | – | 12.1 | – |

Activity calls are given as the source filed them. The calls are words filed in the database; no cut-off is given here.
